From patent US10239933B2, “Compositions and methods for modulating thrombin generation” (The Children's Hospital of Philadelphia, priority 2011, dated 2019)

Chains of the proteins cited; added tags and fusions are not shown. A line that says so, or that is headed by a name, gives the form on record, which may keep a tag or linker.
UniProt P12259, with tags, fused parts or gaps DEL839-1519: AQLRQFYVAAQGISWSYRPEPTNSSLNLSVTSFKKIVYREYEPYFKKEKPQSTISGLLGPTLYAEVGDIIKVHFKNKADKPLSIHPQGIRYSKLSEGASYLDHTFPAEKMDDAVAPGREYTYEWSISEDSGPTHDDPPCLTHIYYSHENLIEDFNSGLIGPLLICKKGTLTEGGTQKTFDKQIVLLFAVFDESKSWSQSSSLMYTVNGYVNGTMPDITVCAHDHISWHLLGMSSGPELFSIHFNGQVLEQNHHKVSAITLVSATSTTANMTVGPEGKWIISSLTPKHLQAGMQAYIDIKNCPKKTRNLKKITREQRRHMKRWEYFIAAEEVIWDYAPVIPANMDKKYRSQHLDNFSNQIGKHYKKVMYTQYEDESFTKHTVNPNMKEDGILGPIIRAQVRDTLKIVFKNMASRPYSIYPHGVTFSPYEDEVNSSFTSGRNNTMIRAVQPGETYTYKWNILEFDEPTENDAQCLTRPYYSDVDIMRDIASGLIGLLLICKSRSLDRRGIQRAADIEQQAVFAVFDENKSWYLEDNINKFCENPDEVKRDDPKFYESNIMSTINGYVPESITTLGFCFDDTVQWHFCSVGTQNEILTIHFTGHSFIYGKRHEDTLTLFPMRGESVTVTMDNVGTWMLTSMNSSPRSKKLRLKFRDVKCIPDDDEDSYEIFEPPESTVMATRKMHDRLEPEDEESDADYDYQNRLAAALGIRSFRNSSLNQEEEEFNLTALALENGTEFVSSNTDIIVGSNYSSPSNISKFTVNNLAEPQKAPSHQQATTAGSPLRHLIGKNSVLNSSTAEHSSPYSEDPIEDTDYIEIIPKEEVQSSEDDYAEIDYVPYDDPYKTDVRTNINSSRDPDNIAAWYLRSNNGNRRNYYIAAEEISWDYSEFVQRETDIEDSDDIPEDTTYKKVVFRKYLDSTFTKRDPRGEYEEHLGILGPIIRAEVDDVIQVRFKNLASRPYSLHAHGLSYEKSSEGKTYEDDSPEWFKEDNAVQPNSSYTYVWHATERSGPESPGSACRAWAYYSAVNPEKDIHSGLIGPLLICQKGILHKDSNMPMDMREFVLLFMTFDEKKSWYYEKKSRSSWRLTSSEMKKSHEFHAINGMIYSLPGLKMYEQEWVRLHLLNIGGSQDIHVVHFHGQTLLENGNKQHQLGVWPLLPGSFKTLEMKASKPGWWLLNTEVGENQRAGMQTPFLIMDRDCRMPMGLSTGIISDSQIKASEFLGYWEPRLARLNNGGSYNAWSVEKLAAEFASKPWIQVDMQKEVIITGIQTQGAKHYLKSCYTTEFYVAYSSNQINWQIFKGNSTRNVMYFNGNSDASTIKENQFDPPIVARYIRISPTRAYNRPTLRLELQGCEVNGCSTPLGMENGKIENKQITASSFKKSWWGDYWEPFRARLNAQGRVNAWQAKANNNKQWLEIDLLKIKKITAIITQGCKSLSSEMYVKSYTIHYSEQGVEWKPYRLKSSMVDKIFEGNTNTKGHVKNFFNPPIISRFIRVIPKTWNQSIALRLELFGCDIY

Target: T1, FV-810 (Homo sapiens, UniProt P12259, DEL839-1519)
T1 construct: amino acids 1-28 are a signal peptide that is cleaved and numbering begins at residue 29; made in house
Experiment: Displacement of OG488-BR from preformed OG488-BR/FV-810 complex (fluorescence anisotropy)
Format: binding
Conditions: 30 nM OG488-BR, 20 nM FV-810, 50 μM PCPS

FXaS195A: catalytically inactive Factor Xa S195A [reference compound]
stoichiometry n, FXa: 1.1±0.07 mol of FXa/mol of FV-810
stoichiometry n, FXa (listed as FXa^S195A): 1.1 mol of FXa/mol of FV-810
